Tested on: NCI-H322M
Experiment: cells
Details: Homo sapiens, 48 h

Molecule `CC(=O)O[C@H]1C(=O)[C@@]2(C)[C@H]([C@H](OC(=O)c3ccccc3)[C@]3(O)C[C@H](OC(=O)[C@H](O)[C@@H](NC(=O)c4ccccc4)c4ccccc4)C(C)=C1C3(C)C)[C@]1(OC(C)=O)CO[C@@H]1C[C@@H]2O` [Paclitaxel, paclitaxel, reference compound] has a CC50 (read-out: Log10 LC50 (converted)) of over 100000 nM.
`CC(=O)O[C@H]1C(=O)[C@@]2(C)[C@H]([C@H](OC(=O)c3ccccc3)[C@]3(O)C[C@H](OC(=O)[C@H](O)[C@@H](NC(=O)C4(C)OC4C)c4ccccc4)C(C)=C1C3(C)C)[C@]1(OC(C)=O)CO[C@@H]1C[C@@H]2O` (some centres unmarked) [Ceph-epoxide, cephalomannine epoxide] was tested, and the GI50 (read-out: Log10 GI50 (converted)) was 24 nM.

From patent publication US5892063A (Hauser, Inc., priority 1997, dated 1999)
